# Measurements taken from US20150342961A1, “USE OF PROSTAGLANDIN E1 (PGE1) AND MISOPROSTOL FOR TREATING CHRONIC MYELOGENOUS/MYELOID LEUKEMIA (CML)” (priority 2014, published 2015).
# System: HSCs
# Assay: Toxicity of screened drugs to HSCs
substance,measurement,value
Trichostatin A,toxicity to HSCs,toxic to HSCs
